The target in this test is Serotonin 5-HT2A receptor (Rattus norvegicus (Rat), UniProt P14842). Nature of the test: Serotonin 5-HT2A receptor binding assay ([3H]-Ketanserin, rat frontal cortex membrane). The settings on record: Ki from IC50 by Cheng-Prussoff formula. Here is the method:
2) Serotonin 5-HT2A Receptor Binding Assay
The assay was performed according to the method by Leysen J E et al. (Leysen J E, Niemegeers C J E, Van Nueten J M and Laduron P M. [3H] Ketanserin (R 41 468), a selective 3H-ligand for serotonin 2 receptor binding sites. Mol. Pharmacol., 1982, 21: 301-314).
Wistar male rats were decapitated, the brain was retrieved immediately and frontal cortex was taken out. It was homogenized in 0.25 M sucrose of a volume 10 times of the weight of the tissue using a Teflon glass homogenizer, and centrifuged at 4° C., 1,000×g for 10 minutes. The obtained supernatant was transferred to another centrifuge tube and suspended in 0.25 M sucrose of a volume 5 times of the weight of the tissue and the precipitate was centrifuged in the above-described condition. […]
The filter plate made of glass fiber was washed with 50 mM Tris-hydrochloric acid buffer (pH 7.4), and after dried, a microplate liquid scintillation cocktail was added and the radioactivity was measured with a microplate scintillation counter. Radioactivity in the presence of 10 μM spiperone was assumed as nonspecific binding.
IC50 value was calculated from concentration-dependent reaction using a non-linear analysis program. Ki value was calculated from IC50 value using Cheng-Prussoff formula.

Protein sequences, listed by entry. Tags and fused reporters are not part of them.
UniProt P14842, whole entry: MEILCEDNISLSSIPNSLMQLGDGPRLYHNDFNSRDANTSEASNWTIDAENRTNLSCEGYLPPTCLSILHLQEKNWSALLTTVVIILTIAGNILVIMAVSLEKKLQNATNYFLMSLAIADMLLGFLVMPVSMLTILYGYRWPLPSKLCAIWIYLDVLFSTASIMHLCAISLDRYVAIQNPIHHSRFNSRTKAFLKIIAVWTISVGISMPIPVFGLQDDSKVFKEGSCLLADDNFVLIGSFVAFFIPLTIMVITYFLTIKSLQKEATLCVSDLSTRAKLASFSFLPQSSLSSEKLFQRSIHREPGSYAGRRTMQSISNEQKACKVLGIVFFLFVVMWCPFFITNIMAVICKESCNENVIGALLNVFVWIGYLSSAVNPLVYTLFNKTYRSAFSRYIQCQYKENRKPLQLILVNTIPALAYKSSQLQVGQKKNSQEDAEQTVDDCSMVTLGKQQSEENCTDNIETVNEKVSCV

pKi: −log10 of the molar value. Counter-ions that a name gives are not always drawn.

A word on the pKi: it is −log10 of the Ki, conventionally taken in molar units. Low readings indicate a large Ki, high ones a small Ki.

For `O=c1c2cc(O)ccc2ccn1CCCCN1CCN(c2cccc3sccc23)CC1` [Example 39, 2-[4-(4-benzo[b]thiophen-4-yl-piperazin-1-yl)butyl]-7-hydroxy-2H-isoquinolin-1-one hydrobromide], the pKi was 8.68.

The values are drawn from US9206167B2, “Piperazine-substituted benzothiophenes for treatment of mental disorders” (Otsuka Pharmaceutical Co., Ltd., priority 2005, dated 2015).
